Measurements taken from US7112341B1, “Pulmonary administration of dry powder formulations for treating infertility” (Nektar Therapeutics, priority 1999, dated 2006).
Values joined by “and” are separate entries in the source; they are usually repeats but may differ in a detail not shown here. Equal values may be shown once.

Columns and labels:
[1] = Pre-formulation evaluation: solution stability, freeze-thaw, adsorption to tubing; format: physicochemical; details: first 2 mL of 175 μg/mL solution, silicon tubing 2 m×4.6 mm i.d.
[2] = Pharmacokinetics of uFSH following pulmonary and subcutaneous administration in cynomolgus monkeys; format: in vivo; details: for Percent Bioavailability: from AUC0-∞, inhaled dose
[3] = PUL 3.8 ± 1.7 μg/kg (low dose), individual animals
[4] = PUL 3.8 ± 1.7 μg/kg (low dose), mean
[5] = PUL 18.4 ± 1.3 μg/kg (mid dose), individual animals
[6] = PUL 18.4 ± 1.3 μg/kg (mid dose), mean
[7] = PUL 37.2 ± 3.9 μg/kg (high dose), individual animals
[8] = PUL 37.2 ± 3.9 μg/kg (high dose), mean

Substance: uFSH: FSH derived from human urine (Vitro Diagnostics, Inc.); mixture of hFSH and hFSH analogs
- uFSH adsorption to the tubing [1]: 10 µg
- AUC0–t [2, 3]: 0 mIU*h/mL and 132.9 mIU*h/mL and 363.2 mIU*h/mL and 237.6 mIU*h/mL and 129.5 mIU*h/mL
- CMax [2, 3]: 0 mIU/mL and 4.6 mIU/mL and 8.5 mIU/mL and 5.6 mIU/mL and 4.7 mIU/mL
- TMax [2, 3]: 0 h and 12 h (2×) and 24 h (2×)
- AUC0–t [2, 4]: 172.6 mIU*h/mL and 173 mIU*h/mL
- CMax [2, 4]: 4.7 mIU/mL
- TMax [2, 4]: 14.4 h
- Serum concentration of immunoreactive FSH ([2]; PUL 3.8 ± 1.7 μg/kg (low dose, powder 2010), 0 h (predose), individual animals): BQL
- Serum concentration of immunoreactive FSH ([2]; PUL 3.8 ± 1.7 μg/kg (low dose, powder 2010), 0 h (predose), mean): 0 mIU/mL
- Serum concentration of immunoreactive FSH ([2]; PUL 3.8 ± 1.7 μg/kg, 0.08 h, individual animals): BQL
- Serum concentration of immunoreactive FSH ([2]; PUL 3.8 ± 1.7 μg/kg, 0.08 h, mean): 0 mIU/mL
- Serum concentration of immunoreactive FSH ([2]; PUL 3.8 ± 1.7 μg/kg, 0.25 h, individual animals): BQL
- Serum concentration of immunoreactive FSH ([2]; PUL 3.8 ± 1.7 μg/kg, 0.25 h, mean): 0 mIU/mL
- Serum concentration of immunoreactive FSH ([2]; PUL 3.8 ± 1.7 μg/kg, 0.5 h, individual animals): BQL
- Serum concentration of immunoreactive FSH ([2]; PUL 3.8 ± 1.7 μg/kg, 0.5 h, mean): 0 mIU/mL
- Serum concentration of immunoreactive FSH ([2]; PUL 3.8 ± 1.7 μg/kg, 1 h, individual animals): BQL
- Serum concentration of immunoreactive FSH ([2]; PUL 3.8 ± 1.7 μg/kg, 1 h, mean): 0 mIU/mL
- Serum concentration of immunoreactive FSH ([2]; PUL 3.8 ± 1.7 μg/kg, 3 h, individual animals): BQL
- Serum concentration of immunoreactive FSH ([2]; PUL 3.8 ± 1.7 μg/kg, 3 h, mean): 0 mIU/mL
- Serum concentration of immunoreactive FSH ([2]; PUL 3.8 ± 1.7 μg/kg, 6 h, individual animals): BQL and 3.1 mIU/mL and 4.5 mIU/mL and 3.7 mIU/mL (2×)
- Serum concentration of immunoreactive FSH ([2]; PUL 3.8 ± 1.7 μg/kg, 6 h, mean): 3.8 mIU/mL
- Serum concentration of immunoreactive FSH ([2]; PUL 3.8 ± 1.7 μg/kg, 9 h, individual animals): BQL and 4.5 mIU/mL and 6.1 mIU/mL and 4.9 mIU/mL and 4.3 mIU/mL
- Serum concentration of immunoreactive FSH ([2]; PUL 3.8 ± 1.7 μg/kg, 9 h, mean): 5.0 mIU/mL
- Serum concentration of immunoreactive FSH ([2]; PUL 3.8 ± 1.7 μg/kg, 12 h, individual animals): BQL and 4.6 mIU/mL and 8.1 mIU/mL and 5.2 mIU/mL and 4.7 mIU/mL
- Serum concentration of immunoreactive FSH ([2]; PUL 3.8 ± 1.7 μg/kg, 12 h, mean): 5.7 mIU/mL
- Serum concentration of immunoreactive FSH ([2]; PUL 3.8 ± 1.7 μg/kg, 24 h, individual animals): BQL and 4.2 mIU/mL and 8.5 mIU/mL and 5.6 mIU/mL and 3.9 mIU/mL
- Serum concentration of immunoreactive FSH ([2]; PUL 3.8 ± 1.7 μg/kg, 24 h, mean): 5.6 mIU/mL
- Serum concentration of immunoreactive FSH ([2]; PUL 3.8 ± 1.7 μg/kg, 48 h, individual animals): BQL (3×) and 4.9 mIU/mL and 3.0 mIU/mL
- Serum concentration of immunoreactive FSH ([2]; PUL 3.8 ± 1.7 μg/kg, 48 h, mean): 4.0 mIU/mL
- Serum concentration of immunoreactive FSH ([2]; PUL 3.8 ± 1.7 μg/kg, 72 h, individual animals): BQL
- Serum concentration of immunoreactive FSH ([2]; PUL 3.8 ± 1.7 μg/kg, 72 h, mean): 0 mIU/mL
- Percent Bioavailability ([2]; PUL 18.4 ± 1.3 μg/kg (mid dose) relative to SC, individual animals): 5.5% and 4.7% and 4.0% and 6.0% and 7.7%
- Percent Bioavailability ([2]; PUL 18.4 ± 1.3 μg/kg (mid dose) relative to SC, mean): 5.6%
- AUC0–t [2, 5]: 941.3 mIU*h/mL and 1001.8 mIU*h/mL and 755.2 mIU*h/mL and 847.8 mIU*h/mL and 1436.9 mIU*h/mL
- AUC0–∞ [2, 5]: 1053.5 mIU*h/mL and 1157.9 mIU*h/mL and 843.4 mIU*h/mL and 1079.3 mIU*h/mL and 1546.8 mIU*h/mL
- CMax [2, 5]: 29.1 mIU/mL and 25.2 mIU/mL and 24.4 mIU/mL and 20.4 mIU/mL and 40.1 mIU/mL
- Half-Life [2, 5]: 20.9 h and 23.5 h and 20.5 h and 30.4 h and 17.83 h
- TMax [2, 5]: 9.0 h (2×) and 12.0 h (3×)
- AUC0–t [2, 6]: 996.6 mIU*h/mL and 997 mIU*h/mL
- AUC0–∞ [2, 6]: 1136.0 mIU*h/mL and 1136 mIU*h/mL
- CMax [2, 6]: 27.8 mIU/mL
- Half-Life [2, 6]: 21.9 h
- TMax [2, 6]: 10.8 h
- Serum concentration of immunoreactive FSH ([2]; PUL 18.4 ± 1.3 μg/kg (mid dose, powder 2010), 0 h (predose), individual animals): BQL
- Serum concentration of immunoreactive FSH ([2]; PUL 18.4 ± 1.3 μg/kg (mid dose, powder 2010), 0 h (predose), mean): 0 mIU/mL
- Serum concentration of immunoreactive FSH ([2]; PUL 18.4 ± 1.3 μg/kg, 0.08 h, individual animals): BQL
- Serum concentration of immunoreactive FSH ([2]; PUL 18.4 ± 1.3 μg/kg, 0.08 h, mean): 0 mIU/mL
- Serum concentration of immunoreactive FSH ([2]; PUL 18.4 ± 1.3 μg/kg, 0.25 h, individual animals): BQL
- Serum concentration of immunoreactive FSH ([2]; PUL 18.4 ± 1.3 μg/kg, 0.25 h, mean): 0 mIU/mL
- Serum concentration of immunoreactive FSH ([2]; PUL 18.4 ± 1.3 μg/kg, 0.5 h, individual animals): BQL
- Serum concentration of immunoreactive FSH ([2]; PUL 18.4 ± 1.3 μg/kg, 0.5 h, mean): 0 mIU/mL
- Serum concentration of immunoreactive FSH ([2]; PUL 18.4 ± 1.3 μg/kg, 1 h, individual animals): BQL (4×) and 4.4 mIU/mL
- Serum concentration of immunoreactive FSH ([2]; PUL 18.4 ± 1.3 μg/kg, 1 h, mean): 0.9 mIU/mL
- Serum concentration of immunoreactive FSH ([2]; PUL 18.4 ± 1.3 μg/kg, 3 h, individual animals): 6.9 mIU/mL and 13.1 mIU/mL and 6.4 mIU/mL and 5.5 mIU/mL and 16.6 mIU/mL
- Serum concentration of immunoreactive FSH ([2]; PUL 18.4 ± 1.3 μg/kg, 3 h, mean): 9.7 mIU/mL
- Serum concentration of immunoreactive FSH ([2]; PUL 18.4 ± 1.3 μg/kg, 6 h, individual animals): 20.0 mIU/mL and 21.0 mIU/mL and 16.6 mIU/mL and 18.8 mIU/mL and 33.0 mIU/mL
- Serum concentration of immunoreactive FSH ([2]; PUL 18.4 ± 1.3 μg/kg, 6 h, mean): 21.9 mIU/mL
- Serum concentration of immunoreactive FSH ([2]; PUL 18.4 ± 1.3 μg/kg, 9 h, individual animals): 29.1 mIU/mL and 24.3 mIU/mL and 19.4 mIU/mL and 17.2 mIU/mL and 40.1 mIU/mL
- Serum concentration of immunoreactive FSH ([2]; PUL 18.4 ± 1.3 μg/kg, 9 h, mean): 26.0 mIU/mL
- Serum concentration of immunoreactive FSH ([2]; PUL 18.4 ± 1.3 μg/kg, 12 h, mean): 27.3 mIU/mL
- Serum concentration of immunoreactive FSH ([2]; PUL 18.4 ± 1.3 μg/kg, 24 h, individual animals): 19.6^(2) mIU/mL and 20.4^(2) mIU/mL and 13.7^(2) mIU/mL and 16.3^(2) mIU/mL and 31.3^(2) mIU/mL
- Serum concentration of immunoreactive FSH ([2]; PUL 18.4 ± 1.3 μg/kg, 24 h, mean): 20.3 mIU/mL
- Serum concentration of immunoreactive FSH ([2]; PUL 18.4 ± 1.3 μg/kg, 48 h, individual animals): 7.4^(2) mIU/mL and 9.3^(2) mIU/mL and 6.9^(2) mIU/mL and 9.0^(2) mIU/mL and 10.7^(2) mIU/mL
- Serum concentration of immunoreactive FSH ([2]; PUL 18.4 ± 1.3 μg/kg, 48 h, mean): 8.7 mIU/mL
- Serum concentration of immunoreactive FSH ([2]; PUL 18.4 ± 1.3 μg/kg, 72 h, individual animals): 3.9^(2) mIU/mL and 4.5^(2) mIU/mL and 3.0^(2) mIU/mL and 5.3^(2) mIU/mL and 4.2^(2) mIU/mL
- Serum concentration of immunoreactive FSH ([2]; PUL 18.4 ± 1.3 μg/kg, 72 h, mean): 4.2 mIU/mL
- Percent Bioavailability ([2]; PUL 37.2 ± 3.9 μg/kg (high dose) relative to SC, individual animals): 9.3% and 3.2% and 13.6% and 4.4% and 6.4%
- Percent Bioavailability ([2]; PUL 37.2 ± 3.9 μg/kg (high dose) relative to SC, mean): 7.4%
- AUC0–t [2, 7]: 3023.6 mIU*h/mL and 1574.9 mIU*h/mL and 5069.1 mIU*h/mL and 1506.5 mIU*h/mL and 1601 mIU*h/mL
- AUC0–∞ [2, 7]: 3554.7 mIU*h/mL and 1981.5 mIU*h/mL and 5659.1 mIU*h/mL and 1845.2 mIU*h/mL and 1790.4 mIU*h/mL
- CMax [2, 7]: 82.4 mIU/mL and 36.0 mIU/mL and 155.0 mIU/mL and 36.7 mIU/mL and 39.8 mIU/mL
- Half-Life [2, 7]: 25.3 h and 29.4 h and 20.52 h and 27.9 h and 20.9 h
- TMax [2, 7]: 9.3 h and 12.3 h (4×)
- AUC0–t [2, 8]: 2555.0 mIU*h/mL and 2555 mIU*h/mL
- AUC0–∞ [2, 8]: 2968.0 mIU*h/mL and 2968 mIU*h/mL
- CMax [2, 8]: 70.0 mIU/mL
- Half-Life [2, 8]: 24.3 h
- TMax [2, 8]: 11.7 h
- Serum concentration of immunoreactive FSH ([2]; PUL 37.2 ± 3.9 μg/kg (high dose, powder 2010), 0 h (predose), individual animals): BQL
